Measured values reported in ChEMBL document CHEMBL3259517, “Synthesis and evaluation of phosphorus containing, specific CDK9/CycT1 inhibitors” (J Med Chem, 2014).

Sequences of proteins named here, by UniProt entry; tags and fusion partners are left off.
UniProt O60563, whole entry, looked up: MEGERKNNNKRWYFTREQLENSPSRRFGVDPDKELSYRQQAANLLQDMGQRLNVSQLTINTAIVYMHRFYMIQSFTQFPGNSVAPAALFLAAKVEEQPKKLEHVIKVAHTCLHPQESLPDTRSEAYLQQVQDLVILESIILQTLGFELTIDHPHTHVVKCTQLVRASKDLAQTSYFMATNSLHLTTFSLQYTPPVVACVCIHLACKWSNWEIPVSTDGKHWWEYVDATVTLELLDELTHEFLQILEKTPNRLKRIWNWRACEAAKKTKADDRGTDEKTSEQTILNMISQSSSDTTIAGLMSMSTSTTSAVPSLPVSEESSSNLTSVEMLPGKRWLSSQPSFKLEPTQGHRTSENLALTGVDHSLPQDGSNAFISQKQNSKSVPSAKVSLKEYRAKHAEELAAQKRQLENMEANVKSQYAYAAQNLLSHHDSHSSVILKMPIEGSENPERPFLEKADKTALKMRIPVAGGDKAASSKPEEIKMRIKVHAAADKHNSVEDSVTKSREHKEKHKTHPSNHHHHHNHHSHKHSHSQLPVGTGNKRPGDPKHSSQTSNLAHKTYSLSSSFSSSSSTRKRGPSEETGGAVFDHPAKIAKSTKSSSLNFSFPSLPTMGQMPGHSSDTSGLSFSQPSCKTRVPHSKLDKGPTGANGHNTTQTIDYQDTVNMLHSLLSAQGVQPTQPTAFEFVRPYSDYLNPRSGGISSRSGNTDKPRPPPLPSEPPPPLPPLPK
UniProt P50750, whole entry, looked up: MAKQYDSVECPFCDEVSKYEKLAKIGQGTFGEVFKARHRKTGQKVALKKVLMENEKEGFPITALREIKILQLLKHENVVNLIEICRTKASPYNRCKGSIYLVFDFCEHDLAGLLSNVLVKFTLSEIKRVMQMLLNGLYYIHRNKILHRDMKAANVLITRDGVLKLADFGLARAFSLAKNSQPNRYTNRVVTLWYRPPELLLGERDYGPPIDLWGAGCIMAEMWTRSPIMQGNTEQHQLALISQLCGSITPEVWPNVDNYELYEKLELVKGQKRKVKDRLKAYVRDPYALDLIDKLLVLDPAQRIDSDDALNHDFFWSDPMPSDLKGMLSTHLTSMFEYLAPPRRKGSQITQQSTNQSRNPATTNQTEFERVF

Target: CDK9/cyclin T1 (Homo sapiens, UniProt O60563+P50750)

| Compound | IC50 [nM] |
| --- | --- |
| CCCP(=O)(Oc1cccc(Nc2cc(-c3cccc(N)c3)ncn2)c1)OC(C)C (configuration not stated) | 6430 |
| CCCP(=O)(O)Oc1cc(Nc2cc(-c3ccccc3OC)ncn2)ccc1C | 1460 |
| CCOP(=O)(CC)Oc1cccc(Nc2cc(-c3cccc([N+](=O)[O-])c3)ncn2)c1 (configuration not stated) | > 10000 |
| CCCP(=O)(Oc1ccc(Nc2cc(-c3cccc([N+](=O)[O-])c3)ncn2)cc1)OC(C)C (configuration not stated) | > 10000 |
| CCOP(=O)(CC)Oc1ccc(Nc2cc(-c3cccc([N+](=O)[O-])c3)ncn2)cc1 (configuration not stated) | > 10000 |
| CCCP(=O)(Oc1cc(Nc2cc(-c3cccc([N+](=O)[O-])c3)ncn2)ccc1C)OC(C)C (configuration not stated) | > 10000 |
| CCP(=O)(O)Oc1cc(Nc2cc(-c3ccccc3OC)ncn2)ccc1C | 1490 |
| CCCP(=O)(Oc1cc(Nc2cc(-c3cccc(N)c3)ncn2)ccc1C)OC(C)C (configuration not stated) | 5380 |
| CCOP(=O)(CC)Oc1cccc(Nc2cc(-c3cccc(N)c3)ncn2)c1 (configuration not stated) | 1800 |
| CCCP(=O)(Oc1cccc(Nc2cc(-c3cccc([N+](=O)[O-])c3)ncn2)c1)OC(C)C (configuration not stated) | > 10000 |
| CCCP(=O)(Nc1cc(Nc2cc(-c3ccccc3OC)ncn2)ccc1C)OC(C)C (configuration not stated) | 3170 |
| CCOP(=O)(CC)Oc1cc(Nc2cc(-c3cccc(N)c3)ncn2)ccc1C (configuration not stated) | 870 |
| CCOP(=O)(CC)Oc1ccc(Nc2cc(-c3ccccc3OC)ncn2)cc1 (configuration not stated) | 360 |
| CCCP(=O)(Oc1ccc(Nc2cc(-c3ccccc3OC)ncn2)cc1)OC(C)C (configuration not stated) | 407 |
| CCCP(=O)(Oc1cc(Nc2cc(-c3ccccc3OC)ncn2)ccc1C)OC(C)C (configuration not stated) | 3060 |
| CCOP(=O)(CC)Oc1cccc(Nc2cc(-c3ccccc3OC)ncn2)c1 (configuration not stated) | 400 |
| CCOP(=O)(CC)Nc1cc(Nc2cc(-c3ccccc3OC)ncn2)ccc1C (configuration not stated) | 1450 |
| CCOP(=O)(CC)Oc1cc(Nc2cc(-c3cccc([N+](=O)[O-])c3)ncn2)ccc1C (configuration not stated) | > 10000 |
| CCOP(=O)(CC)Oc1cc(Nc2cc(-c3ccccc3OC)ncn2)ccc1C (configuration not stated) | 813 |
| CCCP(=O)(Oc1ccc(Nc2cc(-c3cccc(N)c3)ncn2)cc1)OC(C)C (configuration not stated) | 6060 |
| CCOP(=O)(CC)Oc1ccc(Nc2cc(-c3cccc(N)c3)ncn2)cc1 (configuration not stated) | 3840 |
| CCCP(=O)(Oc1cccc(Nc2cc(-c3ccccc3OC)ncn2)c1)OC(C)C (configuration not stated) | 1180 |
